Sequences of proteins named here, by UniProt entry; tags and fusion partners are left off. A change or cut given only in a name is not applied to a line headed by its entry.
UniProt Q96J66: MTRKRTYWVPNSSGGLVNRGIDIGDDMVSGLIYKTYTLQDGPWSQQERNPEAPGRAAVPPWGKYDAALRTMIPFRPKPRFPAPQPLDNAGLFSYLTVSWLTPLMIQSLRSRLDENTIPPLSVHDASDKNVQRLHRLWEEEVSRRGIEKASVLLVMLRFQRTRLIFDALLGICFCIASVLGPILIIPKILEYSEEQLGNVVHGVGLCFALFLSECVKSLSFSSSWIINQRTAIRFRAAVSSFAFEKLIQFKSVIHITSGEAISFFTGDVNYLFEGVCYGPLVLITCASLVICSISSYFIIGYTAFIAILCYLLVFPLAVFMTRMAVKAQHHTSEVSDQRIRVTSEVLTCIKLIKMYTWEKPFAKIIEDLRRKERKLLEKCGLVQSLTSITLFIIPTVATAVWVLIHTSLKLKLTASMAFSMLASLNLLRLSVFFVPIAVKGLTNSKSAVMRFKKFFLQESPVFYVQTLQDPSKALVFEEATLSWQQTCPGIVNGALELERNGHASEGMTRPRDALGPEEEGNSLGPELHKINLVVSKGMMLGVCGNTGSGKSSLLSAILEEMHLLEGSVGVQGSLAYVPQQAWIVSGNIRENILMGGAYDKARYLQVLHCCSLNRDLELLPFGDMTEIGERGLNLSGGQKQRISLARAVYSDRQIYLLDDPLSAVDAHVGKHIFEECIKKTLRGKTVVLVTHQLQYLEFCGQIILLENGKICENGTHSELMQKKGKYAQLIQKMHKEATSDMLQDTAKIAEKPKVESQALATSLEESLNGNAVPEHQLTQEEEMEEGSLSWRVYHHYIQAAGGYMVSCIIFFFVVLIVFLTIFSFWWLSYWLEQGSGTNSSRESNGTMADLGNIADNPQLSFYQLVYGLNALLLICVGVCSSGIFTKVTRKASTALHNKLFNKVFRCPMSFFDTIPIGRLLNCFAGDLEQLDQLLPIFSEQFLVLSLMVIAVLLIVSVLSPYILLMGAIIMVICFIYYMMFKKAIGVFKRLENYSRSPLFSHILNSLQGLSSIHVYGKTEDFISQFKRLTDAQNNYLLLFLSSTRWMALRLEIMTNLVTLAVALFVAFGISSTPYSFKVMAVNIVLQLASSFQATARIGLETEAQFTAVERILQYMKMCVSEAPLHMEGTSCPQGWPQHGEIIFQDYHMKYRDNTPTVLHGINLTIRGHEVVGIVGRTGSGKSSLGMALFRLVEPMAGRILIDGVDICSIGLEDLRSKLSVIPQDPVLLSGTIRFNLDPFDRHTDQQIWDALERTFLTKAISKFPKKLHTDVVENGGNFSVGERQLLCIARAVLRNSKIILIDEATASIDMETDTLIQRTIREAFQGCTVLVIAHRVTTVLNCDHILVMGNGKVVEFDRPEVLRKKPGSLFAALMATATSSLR

According to article PMC7468911 (Nutrients, 2020):

Molecular target: ABCC11 (Homo sapiens, UniProt Q96J66)
Test: inhibition of [3H]-DHEA-S vesicle transport at […]
Type: cell-based
Details: 100 µM

| SMILES | ABCC11-Mediated DHEA-S Transport (% of Control) |
| --- | --- |
| O=C(/C=C/c1ccc(O)cc1)c1ccc(O)cc1O | 0% |
| O=c1c(O)c(-c2cc(O)c(O)c(O)c2)oc2cc(O)cc(O)c12 | 0% |
